ChEMBL document CHEMBL3727350, “Agents and methods for treating ischemic and other diseases” (2014)

By UniProt entry, the sequences of proteins in these tests, tags left out. Where a name states a change or a piece, a line headed by the entry shows the natural chain unless it says otherwise.
UniProt Q923J1: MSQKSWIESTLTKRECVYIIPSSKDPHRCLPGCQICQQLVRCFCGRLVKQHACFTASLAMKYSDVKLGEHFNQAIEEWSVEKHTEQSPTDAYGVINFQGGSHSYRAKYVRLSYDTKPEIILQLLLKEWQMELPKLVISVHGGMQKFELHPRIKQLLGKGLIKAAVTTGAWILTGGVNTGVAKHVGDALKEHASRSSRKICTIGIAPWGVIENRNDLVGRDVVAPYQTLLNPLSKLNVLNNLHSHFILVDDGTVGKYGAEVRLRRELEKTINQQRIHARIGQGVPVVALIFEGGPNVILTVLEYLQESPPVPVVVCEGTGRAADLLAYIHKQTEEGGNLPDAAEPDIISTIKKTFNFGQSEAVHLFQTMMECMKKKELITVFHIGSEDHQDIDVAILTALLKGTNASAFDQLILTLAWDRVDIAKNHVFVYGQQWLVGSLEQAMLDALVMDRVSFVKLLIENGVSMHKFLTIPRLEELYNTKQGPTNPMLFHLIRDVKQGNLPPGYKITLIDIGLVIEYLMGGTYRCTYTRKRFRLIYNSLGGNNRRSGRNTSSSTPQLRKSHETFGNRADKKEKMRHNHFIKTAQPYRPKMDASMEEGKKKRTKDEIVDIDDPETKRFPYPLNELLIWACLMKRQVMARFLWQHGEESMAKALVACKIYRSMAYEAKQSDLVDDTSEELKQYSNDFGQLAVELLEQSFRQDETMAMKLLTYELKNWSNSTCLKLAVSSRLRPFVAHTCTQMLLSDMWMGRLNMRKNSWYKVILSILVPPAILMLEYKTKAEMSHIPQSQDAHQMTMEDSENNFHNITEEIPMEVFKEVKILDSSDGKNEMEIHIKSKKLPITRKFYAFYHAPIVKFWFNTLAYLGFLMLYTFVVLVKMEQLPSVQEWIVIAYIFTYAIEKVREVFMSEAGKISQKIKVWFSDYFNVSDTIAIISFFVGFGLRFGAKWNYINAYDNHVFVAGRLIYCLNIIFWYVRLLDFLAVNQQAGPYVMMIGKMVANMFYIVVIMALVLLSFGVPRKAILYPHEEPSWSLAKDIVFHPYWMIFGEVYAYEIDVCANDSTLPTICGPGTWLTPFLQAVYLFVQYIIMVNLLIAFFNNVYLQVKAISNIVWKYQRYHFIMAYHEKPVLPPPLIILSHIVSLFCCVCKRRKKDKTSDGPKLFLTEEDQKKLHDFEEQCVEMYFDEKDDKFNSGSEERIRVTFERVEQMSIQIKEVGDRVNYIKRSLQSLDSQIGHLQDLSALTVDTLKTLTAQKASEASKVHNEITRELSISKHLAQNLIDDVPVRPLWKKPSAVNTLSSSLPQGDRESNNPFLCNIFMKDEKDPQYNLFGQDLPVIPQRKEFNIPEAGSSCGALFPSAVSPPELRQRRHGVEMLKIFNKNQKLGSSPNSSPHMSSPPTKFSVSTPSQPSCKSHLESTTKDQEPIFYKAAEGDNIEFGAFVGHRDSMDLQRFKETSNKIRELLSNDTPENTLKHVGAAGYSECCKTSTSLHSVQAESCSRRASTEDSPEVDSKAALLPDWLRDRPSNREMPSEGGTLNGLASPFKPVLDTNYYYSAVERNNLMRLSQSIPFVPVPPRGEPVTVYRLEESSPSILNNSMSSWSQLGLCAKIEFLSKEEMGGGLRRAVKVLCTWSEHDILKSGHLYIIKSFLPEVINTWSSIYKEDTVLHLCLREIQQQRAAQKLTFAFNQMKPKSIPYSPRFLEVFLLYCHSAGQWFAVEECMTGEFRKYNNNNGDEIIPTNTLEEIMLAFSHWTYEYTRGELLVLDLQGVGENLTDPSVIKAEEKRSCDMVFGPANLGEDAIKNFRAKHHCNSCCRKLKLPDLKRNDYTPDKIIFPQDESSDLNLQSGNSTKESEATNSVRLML

Molecular target: Transient receptor potential cation channel subfamily M member 7 (Mus musculus) (UniProt Q923J1)
Assay: Inhibition of Tet-induced Flag-tagged mouse TRPM7 expressed in HEK293 cells assessed as inhibition of channel-mediated cell death in presence of Mg2+ incubated for 24 to 48 hrs by propidium iodide uptake assay
Assay type: cell-based
Parameters: concentration or dose not given beside the values

| Compound | inhibition |
| --- | --- |
| COc1cccc2c1C(=O)c1c(O)c3c(c(O)c1C2=O)C[C@@](O)(C(=O)CO)C[C@@H]3O[C@H]1C[C@H](N)[C@H](O)[C@H](C)O1 | Dose-dependent effect |
| O=C1c2c(O)ccc(O)c2C(=O)c2c(NCCNCCO)ccc(NCCNCCO)c21 | Dose-dependent effect |
| CC[C@@H](C(=O)[C@@H](C)[C@@H](O)[C@H](C)CCc1ccc(C)c(O)c1C(=O)O)[C@H]1O[C@](CC)([C@H]2CC[C@](O)(CC)[C@H](C)O2)C[C@@H]1C | Active |
| O=C(O)c1cc(=O)cc(C(=O)O)[nH]1 | Dose-dependent effect |

Calls of active or inactive are those of the source. The calls are words filed in the database; no cut-off is given here.
